Results on one substance are retold here after patent US20100120039A1 (published 2010).

The subject of this test is MCF-7 WT cells. As to the kind of experiment: Anchorage-independent soft agar growth assay. It is filed as cell-based, human. As to conditions: herceptin 10 μg/ml, basal or with heregulin.

“Also recorded” adds a separate entry of the source.

As to “herceptin: humanized monoclonal antibody directed against the extracellular domain of HER2”, the anchorage-independent growth entry is “had no effect; also recorded: did not affect”.
